Experimental data published in ChEMBL document CHEMBL1131506, “Development of a binding model to protein tyrosine kinases for substituted pyrido[2,3-d]pyrimidine inhibitors” (J Med Chem, 1998).

Amino acid sequences for entries named in this document (tags omitted). A change or cut given only in a name is not applied to a line headed by its entry.
UniProt P22607: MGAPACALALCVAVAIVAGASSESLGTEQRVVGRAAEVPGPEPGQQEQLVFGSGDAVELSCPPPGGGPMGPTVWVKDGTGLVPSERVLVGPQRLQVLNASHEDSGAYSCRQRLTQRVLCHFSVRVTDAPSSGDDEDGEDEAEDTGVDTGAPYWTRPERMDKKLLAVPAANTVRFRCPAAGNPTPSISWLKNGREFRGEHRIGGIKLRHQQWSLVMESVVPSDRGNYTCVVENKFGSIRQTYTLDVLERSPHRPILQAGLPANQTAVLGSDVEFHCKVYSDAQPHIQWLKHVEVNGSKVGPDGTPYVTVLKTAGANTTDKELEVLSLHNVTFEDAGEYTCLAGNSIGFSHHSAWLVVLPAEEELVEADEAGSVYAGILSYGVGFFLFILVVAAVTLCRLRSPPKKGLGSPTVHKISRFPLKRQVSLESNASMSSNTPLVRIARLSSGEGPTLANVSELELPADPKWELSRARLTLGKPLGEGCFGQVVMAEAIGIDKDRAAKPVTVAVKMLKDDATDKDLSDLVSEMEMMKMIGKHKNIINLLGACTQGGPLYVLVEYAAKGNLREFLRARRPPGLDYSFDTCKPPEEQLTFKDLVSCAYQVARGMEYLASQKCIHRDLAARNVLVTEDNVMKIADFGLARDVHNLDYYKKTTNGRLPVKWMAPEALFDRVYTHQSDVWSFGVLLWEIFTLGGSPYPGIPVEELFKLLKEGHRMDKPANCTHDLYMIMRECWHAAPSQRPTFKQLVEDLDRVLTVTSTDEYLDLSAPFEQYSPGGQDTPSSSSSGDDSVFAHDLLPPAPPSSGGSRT
UniProt P11362: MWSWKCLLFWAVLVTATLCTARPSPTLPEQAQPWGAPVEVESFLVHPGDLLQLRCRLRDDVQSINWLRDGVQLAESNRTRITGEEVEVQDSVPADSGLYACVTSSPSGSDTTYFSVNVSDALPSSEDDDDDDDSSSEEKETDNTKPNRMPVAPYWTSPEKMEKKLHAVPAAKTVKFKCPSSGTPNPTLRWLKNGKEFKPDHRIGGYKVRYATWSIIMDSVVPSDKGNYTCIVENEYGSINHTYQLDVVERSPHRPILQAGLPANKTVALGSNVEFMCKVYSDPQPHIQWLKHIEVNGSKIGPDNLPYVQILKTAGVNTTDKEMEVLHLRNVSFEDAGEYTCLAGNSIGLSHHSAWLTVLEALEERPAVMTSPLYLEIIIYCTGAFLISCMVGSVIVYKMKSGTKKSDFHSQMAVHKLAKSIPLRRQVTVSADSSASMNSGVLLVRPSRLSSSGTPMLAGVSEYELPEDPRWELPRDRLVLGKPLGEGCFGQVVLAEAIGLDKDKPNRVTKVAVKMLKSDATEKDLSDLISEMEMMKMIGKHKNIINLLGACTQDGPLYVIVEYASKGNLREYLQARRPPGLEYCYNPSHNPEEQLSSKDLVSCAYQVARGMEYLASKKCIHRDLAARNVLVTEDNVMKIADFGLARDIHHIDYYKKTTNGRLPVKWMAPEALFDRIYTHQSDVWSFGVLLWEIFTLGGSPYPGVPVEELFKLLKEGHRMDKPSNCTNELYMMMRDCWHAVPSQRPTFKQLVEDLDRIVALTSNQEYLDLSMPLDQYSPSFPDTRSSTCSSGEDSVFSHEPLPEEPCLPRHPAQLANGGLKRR
UniProt P22455: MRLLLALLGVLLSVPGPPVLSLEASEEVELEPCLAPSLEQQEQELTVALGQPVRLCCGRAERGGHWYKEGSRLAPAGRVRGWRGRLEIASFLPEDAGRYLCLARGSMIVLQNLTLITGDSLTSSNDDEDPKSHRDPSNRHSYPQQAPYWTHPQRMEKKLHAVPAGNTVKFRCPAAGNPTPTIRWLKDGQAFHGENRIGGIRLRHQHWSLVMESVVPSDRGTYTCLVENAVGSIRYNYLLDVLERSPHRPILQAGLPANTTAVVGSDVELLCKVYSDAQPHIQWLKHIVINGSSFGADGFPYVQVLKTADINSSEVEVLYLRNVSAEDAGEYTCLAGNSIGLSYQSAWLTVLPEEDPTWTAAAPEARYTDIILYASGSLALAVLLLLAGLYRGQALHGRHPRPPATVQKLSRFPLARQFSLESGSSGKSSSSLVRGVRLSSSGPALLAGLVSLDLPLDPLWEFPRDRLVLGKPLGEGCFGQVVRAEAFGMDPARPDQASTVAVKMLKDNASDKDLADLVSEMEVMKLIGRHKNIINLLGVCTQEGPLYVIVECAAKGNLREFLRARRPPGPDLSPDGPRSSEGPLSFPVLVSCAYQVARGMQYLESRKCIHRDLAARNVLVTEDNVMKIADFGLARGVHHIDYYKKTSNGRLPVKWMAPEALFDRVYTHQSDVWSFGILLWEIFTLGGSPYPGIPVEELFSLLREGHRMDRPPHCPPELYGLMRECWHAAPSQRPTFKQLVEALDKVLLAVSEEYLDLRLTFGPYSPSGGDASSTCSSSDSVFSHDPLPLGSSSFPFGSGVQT
UniProt P21802: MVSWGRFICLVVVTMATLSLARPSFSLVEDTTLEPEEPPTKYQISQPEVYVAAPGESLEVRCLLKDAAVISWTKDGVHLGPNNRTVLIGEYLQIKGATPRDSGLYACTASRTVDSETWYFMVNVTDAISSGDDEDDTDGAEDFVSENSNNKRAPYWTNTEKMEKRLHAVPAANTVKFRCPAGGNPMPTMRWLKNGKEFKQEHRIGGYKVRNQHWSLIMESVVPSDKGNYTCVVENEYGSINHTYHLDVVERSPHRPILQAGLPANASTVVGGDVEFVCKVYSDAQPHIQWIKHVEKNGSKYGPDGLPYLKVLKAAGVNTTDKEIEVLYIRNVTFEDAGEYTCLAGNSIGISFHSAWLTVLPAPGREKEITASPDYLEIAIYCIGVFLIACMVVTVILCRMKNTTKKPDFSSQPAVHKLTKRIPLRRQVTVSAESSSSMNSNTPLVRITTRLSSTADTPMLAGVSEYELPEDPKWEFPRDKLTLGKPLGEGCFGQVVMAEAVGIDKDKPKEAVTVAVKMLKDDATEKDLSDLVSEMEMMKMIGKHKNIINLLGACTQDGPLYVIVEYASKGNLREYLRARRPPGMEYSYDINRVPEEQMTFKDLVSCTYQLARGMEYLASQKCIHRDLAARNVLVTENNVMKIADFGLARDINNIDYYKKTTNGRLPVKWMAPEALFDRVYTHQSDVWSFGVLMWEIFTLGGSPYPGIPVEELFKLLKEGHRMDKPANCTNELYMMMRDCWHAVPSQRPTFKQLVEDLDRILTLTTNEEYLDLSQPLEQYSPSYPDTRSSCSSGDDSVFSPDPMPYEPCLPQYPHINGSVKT
UniProt P05622: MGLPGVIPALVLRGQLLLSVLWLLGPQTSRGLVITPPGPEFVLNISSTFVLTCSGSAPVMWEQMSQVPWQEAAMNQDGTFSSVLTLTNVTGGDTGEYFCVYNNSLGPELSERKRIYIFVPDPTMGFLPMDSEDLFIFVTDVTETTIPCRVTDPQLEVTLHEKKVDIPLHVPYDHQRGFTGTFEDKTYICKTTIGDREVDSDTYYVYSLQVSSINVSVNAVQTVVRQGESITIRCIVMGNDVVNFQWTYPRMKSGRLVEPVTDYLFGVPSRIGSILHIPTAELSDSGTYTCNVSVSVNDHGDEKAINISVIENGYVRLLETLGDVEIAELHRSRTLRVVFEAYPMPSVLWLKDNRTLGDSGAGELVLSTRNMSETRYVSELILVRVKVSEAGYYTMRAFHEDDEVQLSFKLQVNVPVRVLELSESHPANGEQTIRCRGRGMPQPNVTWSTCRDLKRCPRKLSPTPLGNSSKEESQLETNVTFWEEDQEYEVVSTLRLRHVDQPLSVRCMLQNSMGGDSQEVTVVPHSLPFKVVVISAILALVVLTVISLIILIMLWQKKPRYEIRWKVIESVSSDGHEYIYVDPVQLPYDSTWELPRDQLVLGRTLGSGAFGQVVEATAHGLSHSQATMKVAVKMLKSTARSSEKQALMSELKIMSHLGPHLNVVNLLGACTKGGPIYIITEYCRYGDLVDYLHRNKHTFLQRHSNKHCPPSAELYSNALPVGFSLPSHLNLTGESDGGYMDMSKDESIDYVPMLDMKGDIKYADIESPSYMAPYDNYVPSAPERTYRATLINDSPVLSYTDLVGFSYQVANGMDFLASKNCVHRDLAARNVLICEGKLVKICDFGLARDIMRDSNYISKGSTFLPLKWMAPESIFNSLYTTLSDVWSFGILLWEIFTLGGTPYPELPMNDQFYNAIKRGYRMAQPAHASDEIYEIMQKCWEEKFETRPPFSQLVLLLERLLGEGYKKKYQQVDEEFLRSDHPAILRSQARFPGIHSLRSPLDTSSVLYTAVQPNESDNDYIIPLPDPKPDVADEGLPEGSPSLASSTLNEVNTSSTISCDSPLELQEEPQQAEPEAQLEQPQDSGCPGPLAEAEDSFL
UniProt P26618: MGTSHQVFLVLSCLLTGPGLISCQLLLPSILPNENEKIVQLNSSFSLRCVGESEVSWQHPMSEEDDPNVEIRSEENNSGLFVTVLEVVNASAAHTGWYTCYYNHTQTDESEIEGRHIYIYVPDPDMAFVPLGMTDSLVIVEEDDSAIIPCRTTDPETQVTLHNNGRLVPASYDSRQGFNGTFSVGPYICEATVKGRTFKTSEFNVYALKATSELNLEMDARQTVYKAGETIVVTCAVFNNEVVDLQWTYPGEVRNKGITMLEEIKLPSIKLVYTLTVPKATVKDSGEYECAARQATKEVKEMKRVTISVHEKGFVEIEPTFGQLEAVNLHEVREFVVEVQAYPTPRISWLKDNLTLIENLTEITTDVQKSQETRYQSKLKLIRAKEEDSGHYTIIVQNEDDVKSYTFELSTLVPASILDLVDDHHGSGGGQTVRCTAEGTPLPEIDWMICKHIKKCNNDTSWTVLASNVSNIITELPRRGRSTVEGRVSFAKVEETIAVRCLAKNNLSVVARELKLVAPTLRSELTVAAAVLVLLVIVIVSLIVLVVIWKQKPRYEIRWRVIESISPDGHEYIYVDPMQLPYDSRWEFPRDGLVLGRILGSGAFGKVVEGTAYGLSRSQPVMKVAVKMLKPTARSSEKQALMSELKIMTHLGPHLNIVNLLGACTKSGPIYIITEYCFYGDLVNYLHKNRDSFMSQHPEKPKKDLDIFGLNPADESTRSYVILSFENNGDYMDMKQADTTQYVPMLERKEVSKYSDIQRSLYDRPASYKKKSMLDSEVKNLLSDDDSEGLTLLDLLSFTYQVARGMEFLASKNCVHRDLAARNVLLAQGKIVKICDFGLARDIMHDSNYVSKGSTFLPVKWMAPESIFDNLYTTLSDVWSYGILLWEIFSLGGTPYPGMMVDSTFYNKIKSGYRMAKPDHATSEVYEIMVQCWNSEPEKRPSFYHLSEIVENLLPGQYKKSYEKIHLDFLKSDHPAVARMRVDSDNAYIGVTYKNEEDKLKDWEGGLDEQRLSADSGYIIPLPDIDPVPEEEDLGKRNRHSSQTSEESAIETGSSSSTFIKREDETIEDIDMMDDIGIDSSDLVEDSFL

Tests used:
[1] = target: Fibroblast growth factor receptor (Homo sapiens, UniProt P22607+P11362+P22455+P21802); assay: Inhibitory concentration of compound against human fibroblast growth factor receptor; assay type: protein assay
[2] = target: Platelet-derived growth factor receptor (Mus musculus, UniProt P05622+P26618); assay: Inhibitory concentration of compound against mouse Platelet-derived growth factor receptor

| Structure (SMILES) | IC50 [1] | IC50 [2] |
| --- | --- | --- |
| COc1ccc(NC(=O)Nc2nc3nc(NCCCN4CCN(C)CC4)ncc3cc2-c2c(Cl)cccc2Cl)cc1 | 139 nM | 793 nM |
| CN1CCN(CCCNc2ncc3cc(-c4c(Cl)cccc4Cl)c(NC(=O)NC4CCCCC4)nc3n2)CC1 | – | 263 nM |
| CN1CCN(CCCNc2ncc3cc(-c4c(Cl)cccc4Cl)c(NC(=O)NCc4ccccc4)nc3n2)CC1 | – | 1980 nM |
